Results as given in publication PMC4169044.

How the values were obtained:
E. coli 70S ribosome = test: co-sedimentation; 25 pmol E. coli 70S ribosomes and 250 pmol ICT1 in 250 µl buffer A (10 mM Tris-HCl pH 7.5, 80 mM NH4Cl, 8.2 mM MgSO4, 1 mM DTT), 30°C for 20 min; 15%-30% sucrose gradient; fractions blotted with an ICT1 antibody
[1] = biological target: 55S mitochondrial ribosome from pig liver mitochondria (pig (endogenous in pig liver mitochondria)); test: co-sedimentation; 75 pmol 55S ribosomes and 1,250 pmol N-terminal histidine tagged ICT1 in 250 µl buffer A (10 mM Tris-HCl pH 7.5, 80 mM NH4Cl, 8.2 mM MgSO4, 1 mM DTT), 30°C for 20 min; 15%-30% sucrose gradient, 39,000 rpm for 5.5 hour; fractions blotted with an ICT1 antibody

**Q.** “human mitochondrial ICT1 (immature colon carcinoma transcript-1), wild type, histidine tag removed (from UniProt Q14197 30-206) (natural protein)” was tested. Which percent of the input bound (% of the input ICT1) (E. coli 70S ribosome) did it give?
**A.** 10

**Q.** What about the stoichiometry N (ICT1 per ribosome) (E. coli 70S ribosome) of the same substance?
**A.** 1

**Q.** Which percent of the input bound (% of the input ICT1) [1] does the source give for “N-terminally histidine-tagged human ICT1, wild type (from UniProt Q14197 30-206) (natural protein)” here?
**A.** 5

**Q.** And the stoichiometry N (ICT1 per ribosome) [1]?
**A.** 1
